This passage reports Residual ratio results from US8003083B2, “Benzylidene malonamide and salt thereof, ultraviolet ray absorbent, and agent for external application to the skin” (Shiseido Company, Ltd., priority 2006, dated 2011).

A short description of the data set: Photostability test, sunlight exposure. As to conditions: solution exposed to sunlight for two weeks, 80 MJ/m^2. It is filed as physicochemical. As to the method: A solution of the ultraviolet absorbent of the present invention was exposed to sunlight for two weeks (sunlight exposure level 80 MJ/m^2) and then the residual ratio and changes in the appearance were investigated and the ultraviolet absorption spectrum was measured (solvent: water, concentration 10 ppm, optical path length 1 cm) by using a spectrophotometer; the ultraviolet absorption spectrum was integrated over a range of 290-400 nm to obtain the area value, which was compared with the value before the sunlight exposure.
Changes in the residual ratio and the area value of the ultraviolet absorption spectrum were evaluated based on the following criteria.
Δ: 70% or more and less than 90% of the value before the sunlight exposure.
X: Less than 70% of the value before the sunlight exposure.

For the compound `COc1cc(O)c(C(=O)c2ccccc2)cc1S(=O)(=O)[O-].[Na+]` [sodium 2-hydroxy-4-methoxy-5-sulfoxonium benzophenone, reference compound], the Residual ratio entry is “◯ (90% or more and less than 95% of the value before the sunlight exposure.)”.
